The values that follow come from patent US20250288704A1, “CXCR4-LIGANDS FOR DIAGNOSTIC AND THERAPEUTIC USE AND PRECURSORS THEREOF” (priority 2021, published 2025).

Non-standard residues stand in square brackets, D forms with d. Residues, ends and D or L forms follow the SMILES beside them. Groups on a side chain read outwards from the residue. *: point of attachment. 2Nal = N[C@@H](Cc1ccc2ccccc2c1)C(=O)O; dNMeOrn = CN[C@H](CCCN)C(=O)O; 4Abz = Nc1ccc(C(=O)O)cc1; X1 = NCCNCC(CNCCN)C(=O)*; dDap = NC[C@@H](N)C(=O)O

The series is described as follows: Octanol/PBS partition coefficient (logD7.4). The series is classed as physicochemical. As to conditions: n-octanol/PBS pH 7.4, radiolabeled compound; listed as [^99mTc]Tc-CXCR4-14.

On to `C[C@@H](NC(=O)[C@@H](CCCNC(=N)N)NC(=O)[C@@H](CN)NC(=O)C(CNCCN)CNCCN)C(=O)Nc1ccc(C(=O)NCCC[C@@H]2C(=O)N[C@@H](CCCNC(=N)N)C(=O)N[C@@H](Cc3ccc4ccccc4c3)C(=O)NCC(=O)N[C@H](Cc3ccc(O)cc3)C(=O)N2C)cc1` [Tc-CXCR4-14] (cyclo([dY][dNMeOrn]([4Abz-dA-dR-dDap-X1])R[2Nal]G)), for which the logD7.4 is recorded as −1.75 ± 0.08 (8).
